Patent publication US12324893B2, “Triptan microporation delivery system” (PassPort Technologies, Inc., priority 2019, dated 2025)

Experiment: Administration route study in hairless rats with Sumatriptan Succinate (Example 10)
Settings: rat, in vivo, topical or ocular, 3 mg
Description: In this study, four groups of hairless rats were tested under the following conditions: (1) Group 1 (3 mg free base API, Suc: 0.5 mg, AA: 1 mg); (2) Group 2 (6 mg free base API, Suc: 0.5 mg, AA: 1 mg); (3) Group 3 (9 mg free base API, Suc: 0.5 mg, AA: 1 mg); and (4) Group 4 (6 mg free base API per 100 μL head of saline).
The given bioavailability of Table 18 is relative bioavailability against SC injection.

CNS(=O)(=O)Cc1ccc2[nH]cc(CCN(C)C)c2c1 [Sumatriptan Succinate]
Tmax: 48 min
